Data on one compound can be found in publication PMC6467762 (ACS infectious diseases, 2018).

Where a chain is given by its changes, count along the chain named.

Test [1] has as its target T1, PfDHODH WT (Plasmodium falciparum, UniProt Q08210).
T1 sequence (Q08210 158-569): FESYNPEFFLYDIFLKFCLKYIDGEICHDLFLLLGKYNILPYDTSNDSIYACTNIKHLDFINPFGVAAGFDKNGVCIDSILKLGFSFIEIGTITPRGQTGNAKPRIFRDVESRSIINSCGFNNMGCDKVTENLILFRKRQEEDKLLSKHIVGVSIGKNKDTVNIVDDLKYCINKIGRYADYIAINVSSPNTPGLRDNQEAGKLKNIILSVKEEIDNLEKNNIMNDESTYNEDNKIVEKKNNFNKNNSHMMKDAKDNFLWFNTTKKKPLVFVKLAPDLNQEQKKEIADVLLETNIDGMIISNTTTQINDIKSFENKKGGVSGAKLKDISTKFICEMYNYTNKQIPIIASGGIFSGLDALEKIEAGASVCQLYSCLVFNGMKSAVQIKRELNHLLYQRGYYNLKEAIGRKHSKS
As to the kind of experiment: Recombinant PfDHODH inhibition, direct assay. It counts as biochemical.

Test [2] concerns the target T2, PfDHODH C276F (Plasmodium falciparum, UniProt Q08210, C276F).
T2 sequence (Q08210 158-569 C276F): T1 sequence (Q08210 158-569) with C119F
Description: Recombinant PfDHODH inhibition, direct assay. Type of test: biochemical.

A word on the IC50: it is the concentration at which inhibition is half-maximal.

Turning to `Cc1cc(Nc2ccc3ccccc3c2)n2ncnc2n1` [DSM1, 5-methyl-N-(naphthalen-2-yl)-[1,2,4]triazolo[1,5-a]pyrimidin-7-amine], the half-inhibitory concentration (IC50) in test [1] is 37 ± 5 nM; in test [2], 67 ± 20 nM.
